Drawing on PubChem BioAssay AID1481 (The Scripps Research Institute Molecular Screening Center, 2009), this text covers inhibition for 20 compounds.

Chains of the proteins cited; added tags and fusions are not shown.
UniProt P55072, whole entry: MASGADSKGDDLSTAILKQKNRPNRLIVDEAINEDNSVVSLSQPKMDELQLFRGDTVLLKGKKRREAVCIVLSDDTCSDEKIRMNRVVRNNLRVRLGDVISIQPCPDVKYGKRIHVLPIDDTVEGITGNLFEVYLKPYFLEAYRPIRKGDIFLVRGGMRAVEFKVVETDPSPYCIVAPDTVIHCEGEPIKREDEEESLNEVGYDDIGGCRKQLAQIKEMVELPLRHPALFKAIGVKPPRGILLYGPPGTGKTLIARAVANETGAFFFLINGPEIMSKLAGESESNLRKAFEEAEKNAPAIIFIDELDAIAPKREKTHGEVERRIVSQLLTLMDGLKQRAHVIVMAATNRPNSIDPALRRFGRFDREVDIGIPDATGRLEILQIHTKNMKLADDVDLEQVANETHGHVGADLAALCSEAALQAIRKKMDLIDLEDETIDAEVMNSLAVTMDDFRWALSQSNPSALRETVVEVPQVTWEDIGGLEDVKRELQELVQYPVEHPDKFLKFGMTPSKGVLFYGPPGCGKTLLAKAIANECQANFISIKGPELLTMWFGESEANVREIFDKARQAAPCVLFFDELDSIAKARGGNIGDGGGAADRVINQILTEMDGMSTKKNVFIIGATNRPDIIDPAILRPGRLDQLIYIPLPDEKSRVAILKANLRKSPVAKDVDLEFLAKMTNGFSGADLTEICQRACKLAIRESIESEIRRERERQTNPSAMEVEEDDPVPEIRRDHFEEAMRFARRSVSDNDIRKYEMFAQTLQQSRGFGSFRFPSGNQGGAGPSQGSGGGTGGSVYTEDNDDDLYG

What is called inhibition is the drop in the measured response relative to a control, in per cent.

Only a part is listed here, and it is no random draw. The source made the active and inactive calls. No stated cut-off is given here; in the data, active means inhibition above about 15%; inactive means the rest.

For this experiment, the target named is Transitional endoplasmic reticulum ATPase (Homo sapiens) (UniProt P55072). Briefly: inhibitors of human p97 ATPase, primary screen, biochemical (AID 1481).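 Further: 0% = DMSO vehicle and 100% = wells lacking enzyme.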 The settings on record: recombinant p97 ATPase, Kinase-Glo ATP luminescence, 3 h; at 8 µM; active compounds read high. On the technique in general: Kinase-Glo measures the ATP left after a reaction by luminescence.
In the case of `CN(C)C(=O)c1c([N+](=O)[O-])cc([N+](=O)[O-])cc1[N+](=O)[O-]`, the inhibition was inactive: 10.2%.

Turning to `CP(=O)(Nc1ccc(SC(F)(F)F)cc1)Oc1ccc(F)cc1` (stereo not given), the inhibition was inactive: 1.5%.

In the case of `CCOP(C)(=S)SCC(=O)NC(C)(CC)C(=O)O` (stereo not given), the inhibition is inactive: 1.62%.

Regarding `CP(=O)(Nc1ccc2c(c1)OCCO2)Oc1ccccc1` (stereo not given), the inhibition was inactive: -5.46%.

As to `Cc1ccccc1NP(C)(=O)Nc1ccccc1C`, the inhibition was inactive: 1.01%.

Consider `COc1ccc(OP(C)(=O)Nc2cccc(Br)c2)cc1` (stereo not given), for which the inhibition is inactive: 1.27%.

Consider `CN(C)CCOC(=O)C(O)(c1ccccc1)C1CCCCC1` (stereo not given), for which the inhibition was inactive: -4.31%.

In the case of `COc1ccc(NP(C)(=O)Oc2ccccc2OC)cc1` (stereo not given), the inhibition was inactive: -2.04%.

Regarding `O=[N+]([O-])c1ccc(OP2(=O)COCCO2)cc1` (stereo not given), the inhibition was inactive: 3.25%.

Take `Cc1cc(-c2cccc3ccccc23)c(C)cn1.O=[N+]([O-])c1cc([N+](=O)[O-])c(O)c([N+](=O)[O-])c1`: the inhibition was inactive: 6.94%.

In the case of `O=[N+]([O-])c1cc([N+](=O)[O-])c(NCC2CCS(=O)(=O)C2)c([N+](=O)[O-])c1` (stereo not given), the inhibition was inactive: 5.99%.

In the case of `CCOC(=O)c1ccc(NP(C)(=O)Oc2ccc(F)cc2)cc1` (stereo not given), the inhibition is inactive: -7.06%.

For the compound `COc1ccc(OP(C)(=O)Nc2ccc(SC(F)(F)F)cc2)cc1` (stereo not given), the inhibition is inactive: 2.58%.

`CCN(CC)CCCOC(=O)C(O)(c1ccccc1)C1CCCCC1` (stereo not given): the inhibition is inactive: -4.04%.

Take `CP(=O)(Nc1ccccc1)Oc1ccc(F)cc1` (stereo not given): the inhibition was inactive: 0.54%.

As for `CCCCCOc1ccc(NP(C)(=O)Oc2ccc(Cl)cc2Cl)cc1` (stereo not given), the inhibition was inactive: -5.95%.

For the compound `CP(=O)(Nc1ccccc1F)Oc1ccccc1` (stereo not given), the inhibition is inactive: 4.73%.

As to `CC(C)c1ccc(OP(C)(=O)Nc2ccc(SC(F)(F)F)cc2)cc1` (stereo not given), the inhibition is inactive: 2.86%.

For `O=C(OC1CN2CCC1CC2)c1ccc([N+](=O)[O-])cc1` (stereo not given), the inhibition is inactive: -0.16%.

Turning to `O=C(OCCN1CCN(CCOCc2ccccc2)CC1)C(O)(c1ccccc1)c1ccccc1`, the inhibition is inactive: 0.73%.
